Measured values published in patent US20190175560A1, “MEBENDAZOLE CANCER THERAPIES AND METHODS OF USE” (Shepherd Therapeutics, Inc., priority 2017, published 2019).

Key:
[1] = system: Hs766t pancreatic carcinoma cells; assay: Synergy of MBZ with chemotherapeutic agents (Chou-Talalay CI, Cell Titer Glo); format: cell-based; details: in combination with MBZ, 72 hour incubation
[2] = system: OE-33 esophageal carcinoma cells; assay: as above; format: cell-based; details: in combination with MBZ, 72 hour incubation

O=C1[O][Pt]2([NH][C@@H]3CCCC[C@H]3[NH]2)[O]C1=O [Oxaliplatin]
synergy with MBZ (Yes/No) [1]: No

O=c1[nH]cc(F)c(=O)[nH]1 [5-FU, 5-Fluorouracil]
synergy with MBZ (Yes/No) [2]: No
